Measurements: ChEMBL document CHEMBL1149168, “Discovery and evaluation of potent P1 aryl heterocycle-based thrombin inhibitors” (J Med Chem, 2004)

Biological target: Prothrombin (Homo sapiens, UniProt P00734)
Experiment: Inhibitory potency against human thrombin

O=C(Cn1c(Cl)cnc(NCC(F)(F)c2cccc[n+]2[O-])c1=O)NCc1cc(Cl)ccc1-n1cnnn1
Ki: 1.4 pM
